Assays:
electric eel eeAChE = electric eel eeAChE (Electrophorus electricus, UniProt O42275)
horse serum eqBChE = horse serum eqBChE (Equus caballus, UniProt P81908)
human huMAO-A = human huMAO-A (Homo sapiens, UniProt P21397); conditions: at 10 µM concentration, mean ± SD
human huMAO-B = human huMAO-B (Homo sapiens, UniProt P27338)
[1] = at 10 µM concentration, mean ± SD

Amino acid sequences for entries named in this document (tags omitted). Residues count along the entry.
UniProt O42275, 24-633 limits assumed: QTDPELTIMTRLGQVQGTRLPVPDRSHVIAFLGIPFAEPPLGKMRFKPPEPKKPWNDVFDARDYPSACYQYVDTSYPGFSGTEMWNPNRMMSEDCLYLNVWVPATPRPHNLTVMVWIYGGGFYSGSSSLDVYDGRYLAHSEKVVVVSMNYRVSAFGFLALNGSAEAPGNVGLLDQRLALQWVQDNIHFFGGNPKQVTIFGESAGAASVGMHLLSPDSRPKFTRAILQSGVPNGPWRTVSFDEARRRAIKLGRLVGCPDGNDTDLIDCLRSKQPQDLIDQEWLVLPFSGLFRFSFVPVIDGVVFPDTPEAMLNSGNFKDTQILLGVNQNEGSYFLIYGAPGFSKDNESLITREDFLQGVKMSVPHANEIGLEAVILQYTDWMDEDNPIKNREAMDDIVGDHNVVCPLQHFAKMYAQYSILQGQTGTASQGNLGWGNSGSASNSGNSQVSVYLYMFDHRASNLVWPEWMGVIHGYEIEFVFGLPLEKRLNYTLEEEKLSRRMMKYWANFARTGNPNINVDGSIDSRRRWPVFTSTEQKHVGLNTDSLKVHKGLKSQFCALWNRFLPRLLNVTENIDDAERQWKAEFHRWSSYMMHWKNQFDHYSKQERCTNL
UniProt P81908, whole entry: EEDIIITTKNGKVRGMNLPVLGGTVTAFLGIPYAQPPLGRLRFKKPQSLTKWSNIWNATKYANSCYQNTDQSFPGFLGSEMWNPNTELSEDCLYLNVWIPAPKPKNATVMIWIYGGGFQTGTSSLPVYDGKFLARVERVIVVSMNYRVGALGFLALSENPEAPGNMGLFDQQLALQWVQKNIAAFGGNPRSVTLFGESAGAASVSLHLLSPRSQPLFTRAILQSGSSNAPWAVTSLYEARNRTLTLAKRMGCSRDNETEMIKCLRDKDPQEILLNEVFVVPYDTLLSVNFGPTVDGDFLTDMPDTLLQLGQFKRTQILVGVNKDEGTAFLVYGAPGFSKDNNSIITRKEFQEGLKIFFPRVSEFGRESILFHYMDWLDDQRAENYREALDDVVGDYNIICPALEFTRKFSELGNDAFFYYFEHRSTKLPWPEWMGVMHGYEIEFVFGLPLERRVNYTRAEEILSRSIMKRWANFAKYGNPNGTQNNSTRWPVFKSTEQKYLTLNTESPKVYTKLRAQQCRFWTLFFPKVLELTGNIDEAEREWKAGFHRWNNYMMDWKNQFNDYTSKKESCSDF
UniProt P21397, whole entry: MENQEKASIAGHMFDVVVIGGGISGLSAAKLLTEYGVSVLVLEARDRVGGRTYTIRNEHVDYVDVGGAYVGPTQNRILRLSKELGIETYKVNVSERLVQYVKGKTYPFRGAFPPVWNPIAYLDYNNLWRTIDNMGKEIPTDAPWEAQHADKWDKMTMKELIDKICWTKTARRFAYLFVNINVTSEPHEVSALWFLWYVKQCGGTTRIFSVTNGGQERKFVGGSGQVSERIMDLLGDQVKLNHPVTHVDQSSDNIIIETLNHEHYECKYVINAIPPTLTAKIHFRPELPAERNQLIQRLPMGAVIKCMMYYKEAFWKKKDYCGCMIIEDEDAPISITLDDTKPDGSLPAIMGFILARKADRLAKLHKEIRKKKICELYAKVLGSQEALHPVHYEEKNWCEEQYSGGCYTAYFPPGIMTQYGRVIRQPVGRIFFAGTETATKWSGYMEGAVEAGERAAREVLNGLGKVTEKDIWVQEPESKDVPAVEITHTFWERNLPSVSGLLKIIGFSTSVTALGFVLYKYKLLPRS
UniProt P27338, whole entry: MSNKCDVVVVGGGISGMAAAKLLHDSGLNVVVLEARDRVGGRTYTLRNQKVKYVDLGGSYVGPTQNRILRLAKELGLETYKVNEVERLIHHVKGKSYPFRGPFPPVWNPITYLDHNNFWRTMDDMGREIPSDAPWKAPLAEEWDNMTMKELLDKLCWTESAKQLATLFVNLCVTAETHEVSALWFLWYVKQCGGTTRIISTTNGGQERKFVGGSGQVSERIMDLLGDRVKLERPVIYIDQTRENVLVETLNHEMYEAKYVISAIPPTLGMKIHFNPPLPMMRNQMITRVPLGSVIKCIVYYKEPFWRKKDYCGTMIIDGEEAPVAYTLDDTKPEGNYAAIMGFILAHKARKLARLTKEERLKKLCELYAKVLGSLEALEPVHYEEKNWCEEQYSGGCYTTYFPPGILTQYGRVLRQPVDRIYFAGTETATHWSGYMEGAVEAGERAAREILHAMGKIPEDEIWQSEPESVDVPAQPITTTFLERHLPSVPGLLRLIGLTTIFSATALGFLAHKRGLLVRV

For CN(Cc1ccccc1)Cc1c(O)ccc2c(-c3cc4ccccc4oc3=O)cc(=O)oc12, the eeAChE % inhibition (electric eel eeAChE; [1]) was “[40 ± 9] %”, the eqBChE % inhibition (horse serum eqBChE; [1]) was “[31 ± 4] %” and the huMAO-A % inhibition (human huMAO-A) was “[28 ± 4] %”. It also gave an IC50 (human huMAO-B) of 10 µM.
CC(C)CN(Cc1c(O)ccc2c(-c3cc4ccccc4oc3=O)cc(=O)oc12)CC(C)C was tested, and the IC50 (electric eel eeAChE) was 10 µM, the IC50 (horse serum eqBChE; read-out: eqBChE IC50, mean ± SD of three independent determinations, ~10 means 50–60% inhibition at 10 µM) was 10 µM and the huMAO-A % inhibition (human huMAO-A) was “[27 ± 2] %”. For the same compound, the huMAO-B % inhibition (human huMAO-B; [1]) was “[28 ± 4] %”.

— article PMC12562640, “Investigating Amphoteric 3,4′-Biscoumarin-Based ortho-[(Dialkylamino)methyl]phenols as Dual MAO and ChE Inhibitors” (International Journal of Molecular Sciences, 2025)
